Read-outs that look alike come from different tables or passages of the source.
Aluminum phthalocyanine chloride [Dye I]
Solubility or Dispersibility (50/50 acetone/water, 600 ppm dye): Soluble
Solubility or Dispersibility (Acetone, 600 ppm dye): Insoluble
Solubility or Dispersibility (Ethanol, 600 ppm dye): Partially Soluble
Solubility or Dispersibility (Ethyl acetate, 600 ppm dye): Insoluble
Solubility or Dispersibility (Methyl acetate, 600 ppm dye): Insoluble
Solubility or Dispersibility (Methyl ethyl ketone, 600 ppm dye): Insoluble
Solubility or Dispersibility (Propylene glycol with 1% (by weight) Surfynol 465 surfactant, 600 ppm dye): Soluble
Solubility or Dispersibility (Water with 1% ammonium hydroxide, 600 ppm dye): Insoluble
Solubility or Dispersibility (Water, 0.06% (by weight) or 600 ppm dye): Insoluble

Source: patent US20020107302A1, “Monomeric dye inkjet printing ink formulations for invisible marking / identification” (priority 2000, published 2002)
